Assay results reported in US20120046222A1.

Each substance was assayed against GLP-1 receptor (UniProt P32301) (assay: cell-based or functional assay).

Cyclase GLP-1 Receptor EC50	Substance
1.03 nM	Ala^2,Pro^3,Ala^4-exendin-4 (from UniProt P26349) (peptide)
0.007 nM	Ala^2,Pro^3-exendin-4 (from UniProt P26349) (peptide)
0.065 nM	NMeAla^2,Pro^3-exendin-4 (from UniProt P26349) (peptide)
0.022 nM	Pro^3,Ala^4-exendin-4 (from UniProt P26349) (peptide)
0.06 nM	Pro^3,dAla^4-exendin-4 (from UniProt P26349) (peptide)
1.09 nM	Val^2,Pro^3-exendin-4 (from UniProt P26349) (peptide)
0.01 nM	exendin-4 amide (from UniProt P26349) (peptide)
